This is a selection; strong and weak results do not stand in their true shares. Some of these compounds have results that are not shown, active ones among them. Active and inactive are the calls of the source. No stated cut-off is given here; in the data, active means inhibition above about 50%; inactive means the rest.
What follows are compounds tested against Tyrosine-protein phosphatase non-receptor type 22 (Homo sapiens) (UniProt Q9Y2R2) (assay: PTPN22 lymphoid phosphatase activity blockers – biochemical, fluorescence intensity, uHTS (AID 1779;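 further: plate controls were vehicle with enzyme for no effect and no enzyme for full effect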)). Details: recombinant LYP phosphatase, at 11.5 µM, hits give high values.

The chains behind the UniProt entries cited, without tags or fusion partners.
UniProt Q9Y2R2, whole entry: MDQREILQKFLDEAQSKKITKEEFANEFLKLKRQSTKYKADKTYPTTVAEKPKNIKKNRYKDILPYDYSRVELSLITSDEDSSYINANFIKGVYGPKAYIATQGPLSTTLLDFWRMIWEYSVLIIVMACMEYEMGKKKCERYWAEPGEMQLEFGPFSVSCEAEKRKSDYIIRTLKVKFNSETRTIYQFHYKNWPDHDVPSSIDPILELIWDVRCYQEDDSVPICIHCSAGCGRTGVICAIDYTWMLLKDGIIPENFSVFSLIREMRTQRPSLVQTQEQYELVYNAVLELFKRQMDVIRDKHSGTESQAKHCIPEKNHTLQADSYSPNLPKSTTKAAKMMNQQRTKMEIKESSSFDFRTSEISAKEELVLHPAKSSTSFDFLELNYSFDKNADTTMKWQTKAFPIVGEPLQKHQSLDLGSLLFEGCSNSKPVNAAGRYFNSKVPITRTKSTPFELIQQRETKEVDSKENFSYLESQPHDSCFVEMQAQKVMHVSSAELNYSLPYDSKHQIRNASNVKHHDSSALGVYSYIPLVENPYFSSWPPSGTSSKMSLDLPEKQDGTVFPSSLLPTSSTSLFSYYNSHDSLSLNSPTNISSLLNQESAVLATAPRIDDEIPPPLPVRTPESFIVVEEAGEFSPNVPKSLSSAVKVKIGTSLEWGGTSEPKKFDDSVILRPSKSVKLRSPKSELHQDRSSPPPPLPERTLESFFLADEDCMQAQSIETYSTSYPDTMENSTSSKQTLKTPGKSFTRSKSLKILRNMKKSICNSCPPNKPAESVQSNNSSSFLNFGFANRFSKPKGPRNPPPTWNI

Row | SMILES | inhibition
1 | CN(C)C1(CNC(=O)c2ccc(Br)cc2)CCCCC1 | inactive: -10.1%
2 | COc1cc(C(=O)NCC2(N(C)C)CCCCC2)c([N+](=O)[O-])cc1OC | inactive: -4.8%
3 | COc1cccc(C(=O)NCC2(N3CCCCC3)CCCCC2)c1 | inactive: -3.2%
4 | COc1ccc(Cl)cc1C(=O)NCC1(N(C)C)CCCCC1 | inactive: -6.6%
5 | O=C(NCC1(N2CCCCC2)CCCCC1)c1cccc(Cl)c1 | inactive: -2.1%
6 | O=C(OC1CN2CCC1CC2)C(CO)(c1ccccc1)c1ccccc1 (centres undefined) | inactive: 4.2%
7 | COc1ccc(Br)c(C(=O)NCC2(N3CCCCC3)CCCCC2)c1 | inactive: 6.9%
8 | CN(C)c1cccc(C(=O)NCC2(N(C)C)CCCCC2)c1 | inactive: -6.1%
9 | CC(C)Oc1ccc(C(=O)NCC2(N(C)C)CCCCC2)cc1 | inactive: -11.6%
10 | O=C(NCC1(N2CCCCC2)CCCCC1)c1cc([N+](=O)[O-])ccc1Cl | inactive: -2.8%
11 | CN1[C@@H]2CC[C@H]1CC(OC(=O)C(O)(c1ccccc1)c1ccccc1)C2 (some centres undefined) | inactive: -5.5%
12 | CC(C)N1C(=O)CC2(CCN(CCOC(=O)C(O)(c3ccccc3)c3ccccc3)CC2)C1=O | inactive: -4.5%
13 | CCN(CC)CC(C)C(C)OC(=O)C(O)(c1ccccc1)c1ccccc1 (centres undefined) | inactive: -5.5%
14 | COc1cc(SC)ccc1C(=O)NCC1(N(C)C)CCCCC1 | inactive: -4.2%
15 | Cc1ccc(C(=O)NCC2(N3CCCCC3)CCCCC2)cc1 | inactive: -9.4%
16 | Cc1ccccc1C(=O)NCC1(N2CCCCC2)CCCCC1 | inactive: 6.1%
17 | CN(C)C1CCCC1OC(=O)C(O)(c1ccccc1)c1ccccc1 (centres undefined) | inactive: -2.1%
18 | CN(C)c1ccc(C(=O)NCC2(N(C)C)CCCCC2)cc1 | inactive: -4%
19 | C=CCN1CCN(CCOC(=O)C(O)(c2ccccc2)c2ccccc2)CC1 | inactive: -13.1%
20 | O=C(NCC1(N2CCCCC2)CCCCC1)c1cc(F)c(F)cc1Cl | inactive: -6.8%
21 | Cc1cc(C(=O)NCC2(N3CCCCC3)CCCCC2)ccc1[N+](=O)[O-] | inactive: -7.6%
22 | CCN1CCCC(OC(=O)C2(O)c3ccccc3C=Cc3ccccc32)C1 (centres undefined) | inactive: 2.9%
23 | O=C(NCC1(N2CCCCC2)CCCCC1)c1cccc(Br)c1 | inactive: -3.9%
24 | COc1ccc(C(=O)NCC2(N(C)C)CCCCC2)cc1 | inactive: -10%
